Results reported in patent US11753479B2, “Nucleic acids encoding anti-OX40L antibodies” (Kymab Limited, priority 2014, dated 2023).

Molecular target: T1, hOX40L expressed on CHO-S cells (Homo sapiens, UniProt P23510)
T1 construct: expressed in transfected cells
T1 sequence (P23510 1-183): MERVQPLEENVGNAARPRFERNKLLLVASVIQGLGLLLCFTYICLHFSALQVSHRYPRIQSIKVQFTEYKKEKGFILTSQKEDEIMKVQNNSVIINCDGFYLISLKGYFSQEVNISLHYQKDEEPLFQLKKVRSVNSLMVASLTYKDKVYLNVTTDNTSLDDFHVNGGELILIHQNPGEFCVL
Assay: Binding to CHO-S expressed hOX40L (FACS)
Conditions: binding to CHO-S expressed hOX40L by FACS
Protocol: To determine whether wells selected using the primary screen selection criteria had the required characteristics set by the inventors, a number of assays were performed. Hybridoma clones selected as hits from primary screening were cultured for 3 days and the supernatants collected from hybridoma cells were tested to assess whether the secreted antibodies that bind to CHO-S expressed hOX40L, in some case bind to untransfected CHO-S cells and whether they neutralise recombinant OX40R Fc binding to CHO-S hOX40L and ability to neutralise OX40R binding to recombinant biotinylated hOX40L.
CHO-S cells expressing hOX40L or untransfected CHO-S cells, diluted in FACS buffer (PBS+1% w/v BSA+0.1% w/v NaN3) were distributed to a 96 well V-bottom plate (Greiner) at a density of 1×10^5 cells per well. […]
To fix cells 100 μL 2% v/v paraformaldehyde was added and cells incubated for 30 minutes at 4° C., cells were pelleted by centrifugation 300×g and the plates and resuspended in 50 μL of FACS buffer. PE and APC signal intensity (geomean) was measured by flow cytometry using a BD FACS Array instrument.
% of control binding was calculated using geomean fluorescence as described in equation 1 where total binding was defined as reference antibody at 10 μg/mL and non-specific binding as mouse IgG1 antibody at 10 μg/mL. % receptor binding was calculated using Equation 3. […]

- FACS Binding: YES
B1: 19H01 (hybridoma): murine/human chimeric anti-OX40L antibody purified from hybridoma supernatant (protein, listed as Homo Sapiens)
chain: EVQLVESGGGLVKPGGSLRLSCAASGFTFSNAWMSWVRQAPGKGLEWVGRIKSKTEGGTTDYAAPVKGRFTISRDDSKNTLYLQMNSLKTEDTAVYYCTTDFLWFGEFPFDYWGQGTLVTVSS
modifications: VH only; VL and constant regions missing
notes: murine/human chimeric anti-OX40L antibody purified from hybridoma supernatant
